The values that follow come from publication PMC1626583.

Protein sequences, listed by entry. Tags and fused reporters are not part of them.
UniProt P05556, whole entry, looked up: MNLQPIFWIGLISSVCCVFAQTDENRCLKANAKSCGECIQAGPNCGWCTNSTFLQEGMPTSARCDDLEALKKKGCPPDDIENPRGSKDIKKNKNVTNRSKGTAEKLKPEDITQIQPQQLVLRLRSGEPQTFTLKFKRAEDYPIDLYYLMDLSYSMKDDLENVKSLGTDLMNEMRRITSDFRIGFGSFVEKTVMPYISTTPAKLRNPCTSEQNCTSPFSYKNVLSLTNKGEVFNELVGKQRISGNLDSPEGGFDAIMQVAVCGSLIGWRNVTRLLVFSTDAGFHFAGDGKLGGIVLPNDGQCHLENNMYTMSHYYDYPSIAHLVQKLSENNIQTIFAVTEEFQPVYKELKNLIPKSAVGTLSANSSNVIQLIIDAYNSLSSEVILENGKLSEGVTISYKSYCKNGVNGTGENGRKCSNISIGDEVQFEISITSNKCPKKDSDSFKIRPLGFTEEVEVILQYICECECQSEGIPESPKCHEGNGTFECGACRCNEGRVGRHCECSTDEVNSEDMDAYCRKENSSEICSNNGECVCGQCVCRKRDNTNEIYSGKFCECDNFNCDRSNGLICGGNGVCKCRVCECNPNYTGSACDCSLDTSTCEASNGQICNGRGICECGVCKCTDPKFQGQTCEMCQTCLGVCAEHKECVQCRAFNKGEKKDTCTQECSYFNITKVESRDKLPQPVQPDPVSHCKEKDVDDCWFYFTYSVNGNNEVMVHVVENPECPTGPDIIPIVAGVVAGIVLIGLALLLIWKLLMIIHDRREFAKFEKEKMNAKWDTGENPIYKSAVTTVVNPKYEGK

This assay concerns the target integrin α5β1 (human (endogenous in placenta)) (UniProt P05556). Briefly: ELISA. (In general: ELISA stands for enzyme-linked immunosorbent assay.)

Usually Kd stands for the free concentration of one partner at which half of the binding sites on the other are occupied at equilibrium, for simple one-to-one binding. Higher therefore signals lower affinity.

For the substance “FIII9–10 mutant Ala1, GST fusion protein (domain or fragment)”, the dissociation constant (Kd) came out at 5 nM.

In turn, “FIII9–10 mutant Ala3, GST fusion protein (domain or fragment)” returned a Kd of 5 nM. “FIII9–10 mutant Ala5-L1408P, GST fusion protein (domain or fragment)”: the fold enhancement over Ala5 worked out at 3 fold. For the substance “FIII9–10 mutant L1408P, GST fusion protein (domain or fragment)”, the Kd is 0.7 nM.
